In paper PMC10606955 (Chemico-biological interactions, 2023):
“And” between values parts separate entries of the source, which are not always exact repeats. Equal values may be shown once.

Key:
[1] = molecular target: T1, carboxylesterase 1 (CES1) (Homo sapiens, UniProt P23141); experiment: Concentration response curves for inhibition of CES1; assay type: biochemical; conditions: read-out: IC50 (kratom alkaloids); alkaloid 0–128 μM, 200 μM OST, 1% DMSO, CES1 S9
T1 sequence (P23141 18-567): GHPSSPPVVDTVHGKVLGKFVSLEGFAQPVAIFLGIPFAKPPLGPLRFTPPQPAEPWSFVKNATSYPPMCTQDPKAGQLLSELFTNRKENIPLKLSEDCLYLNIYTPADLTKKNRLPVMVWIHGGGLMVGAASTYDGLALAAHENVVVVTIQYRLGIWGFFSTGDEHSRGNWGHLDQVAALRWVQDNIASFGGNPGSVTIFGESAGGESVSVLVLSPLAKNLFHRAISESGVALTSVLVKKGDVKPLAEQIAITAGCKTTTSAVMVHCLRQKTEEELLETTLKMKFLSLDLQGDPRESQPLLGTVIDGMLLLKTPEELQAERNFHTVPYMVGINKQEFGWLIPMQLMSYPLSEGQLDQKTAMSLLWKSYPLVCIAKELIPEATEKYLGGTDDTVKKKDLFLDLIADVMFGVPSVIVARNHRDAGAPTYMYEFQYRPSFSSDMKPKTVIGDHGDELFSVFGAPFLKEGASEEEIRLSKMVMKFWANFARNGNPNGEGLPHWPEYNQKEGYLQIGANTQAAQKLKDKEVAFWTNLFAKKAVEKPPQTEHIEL
Method in brief: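 CES1 S9 (supernatant, 9000g, from sonicated Flp-In-293 cells expressing wild-type CES1) at 20 μg/mL in 50 mM phosphate buffer. Test compound at 0–128 μM, or extracts at 0–128 μg/mL, in 1% DMSO with 200 μM oseltamivir, 15 min at 37°C. Stopped with 4 volumes acetonitrile containing ritalinic acid internal standard. Oseltamivir carboxylate measured by LC-MS/MS and expressed relative to DMSO control; IC50 fitted by modified Hill equation.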

[2] = molecular target: T1, carboxylesterase 1 (CES1); experiment: Time-dependent inhibition of CES1; assay type: biochemical; conditions: mean ± S.E., 200 μM OST

Substance: corynantheidine
- IC50 [1]: 32.3 µM and < 50 µM
- IC50 ([2]; No preincubation): 32.3 ± 3.64 µM
- IC50 ([2]; Preincubation 30 min with CES1 S9): 32 ± 5.37 µM
